Reference: US11254668B2, “Pyrazolo[1,5-A]pyrazin-4-yl and related derivatives” (Pfizer Inc., priority 2017, dated 2022)

Sequences of proteins named here, by UniProt entry; tags and fusion partners are left off. Residues count along the entry.
UniProt P29597, 897-1176: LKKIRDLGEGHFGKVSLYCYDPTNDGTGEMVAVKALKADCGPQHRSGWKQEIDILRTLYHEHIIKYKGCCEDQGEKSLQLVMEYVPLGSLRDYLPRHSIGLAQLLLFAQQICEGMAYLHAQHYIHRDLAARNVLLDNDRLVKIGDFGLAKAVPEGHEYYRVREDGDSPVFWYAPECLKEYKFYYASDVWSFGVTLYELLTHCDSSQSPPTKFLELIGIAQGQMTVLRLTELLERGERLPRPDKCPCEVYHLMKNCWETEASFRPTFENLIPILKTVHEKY
UniProt P23458, 875-1153: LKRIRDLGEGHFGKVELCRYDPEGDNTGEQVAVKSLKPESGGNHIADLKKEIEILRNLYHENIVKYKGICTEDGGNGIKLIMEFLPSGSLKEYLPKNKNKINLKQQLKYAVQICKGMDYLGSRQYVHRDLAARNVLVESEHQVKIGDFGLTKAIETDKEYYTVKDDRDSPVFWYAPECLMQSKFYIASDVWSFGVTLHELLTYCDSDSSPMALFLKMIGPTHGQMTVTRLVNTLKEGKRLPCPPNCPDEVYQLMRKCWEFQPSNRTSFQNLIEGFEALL
UniProt O60674, 849-1124: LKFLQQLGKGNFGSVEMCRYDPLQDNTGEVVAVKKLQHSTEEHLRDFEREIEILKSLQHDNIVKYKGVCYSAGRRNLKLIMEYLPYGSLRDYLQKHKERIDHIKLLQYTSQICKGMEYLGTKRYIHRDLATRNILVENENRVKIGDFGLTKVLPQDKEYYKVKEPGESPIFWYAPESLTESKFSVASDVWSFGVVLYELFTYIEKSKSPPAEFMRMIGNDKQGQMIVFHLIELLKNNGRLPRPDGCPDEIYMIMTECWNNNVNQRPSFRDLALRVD
UniProt P52333, 822-1111: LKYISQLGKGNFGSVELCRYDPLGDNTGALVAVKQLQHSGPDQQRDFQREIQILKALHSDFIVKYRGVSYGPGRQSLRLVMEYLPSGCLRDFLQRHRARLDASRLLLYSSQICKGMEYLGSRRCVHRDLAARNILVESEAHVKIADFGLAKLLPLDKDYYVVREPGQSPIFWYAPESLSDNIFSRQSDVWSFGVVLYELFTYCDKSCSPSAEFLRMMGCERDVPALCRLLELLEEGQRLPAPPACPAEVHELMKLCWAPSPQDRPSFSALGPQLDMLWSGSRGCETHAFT

Key:
Type in all cases: biochemical
TYK2 = TYK2 (Homo sapiens (Human), UniProt P29597); test: JAK Caliper Enzyme Assay at 1 mM ATP, TYK2
Experimental: (§1) Compounds of the invention were evaluated by in vitro methods to determine their respective ability to inhibit the JAK kinases (TYK2, JAK1, JAK2, JAK3).
(§2) The human JAK inhibitory activity was determined by using a microfluidic assay to monitor phosphorylation of a synthetic peptide by the recombinant human kinase domain of each of the four members of the JAK family, JAK1, JAK2, JAK3 and TYK2. […] Each assay condition was optimized for enzyme concentration and room temperature incubation time to obtain a conversion rate of 20% to 30% phosphorylated peptide product. Reactions were terminated by the addition of stop buffer containing EDTA. Utilizing the LabChip 3000 mobility shift technology (Caliper Life Science), each assay reaction was sampled to determine the level of phosphorylation. This technology is separation-based, allowing direct detection of fluorescently labeled substrates and products. […]
(§3) The data was collected using the HTS Well Analyzer software from Caliper Life Sciences. The data output for data analysis is the percent product converted calculated on peak height (Equation 1). % product converted=100*((product)/(product+substrate)) Equation 1: […]
(§4) The percent effect at each compound concentration was calculated based on the positive and negative control well contained within each assay plate (Equation 2). […]

JAK1 = JAK1 (Homo sapiens (Human), UniProt P23458); test: JAK Caliper Enzyme Assay at 1 mM ATP, JAK1
Experimental: as §1, §2, §3, §4

JAK2 = JAK2 (Homo sapiens (Human), UniProt O60674); test: JAK Caliper Enzyme Assay at 1 mM ATP, JAK2
Experimental: as §1, §2, §3, §4

JAK3 = JAK3 (Homo sapiens (Human), UniProt P52333); test: JAK Caliper Enzyme Assay at 1 mM ATP, JAK3
Experimental: as §1, §2, §3, §4

Molecule | IC50 (TYK2) | IC50 (JAK1) | IC50 (JAK2) | IC50 (JAK3) | IC50 (TYK2; JAK Caliper enzyme assay)
[trans-3-(1-methyl-1H-pyrazol3-[7-(1H-pyrazol-4-yl)-1,6-naphthyridin-5-yl]-1H-pyrazol-1-yl}cyclobutyl]acetonitrile [Example 87] | 2320 nM | > 10000 nM | > 10000 nM | > 10000 nM | –
N#CC[C@]1(n2ncc(-c3cc(-c4cncc(N)n4)cc4ncccc34)n2)C[C@H](C#N)C1 [Example 397, trans-3-{4-[7-(6-aminopyrazin-2-yl)quinolin-5-yl]-2H-1,2,3-triazol-2-yl}-3-(cyanomethyl)cyclobutanecarbonitrile] | – | – | – | – | 2320 nM

Like-named read-outs stand apart in the source and are kept apart here.
